Assay results as given in patent US9662347B2, “Method for inhibiting the induction of cell death by inhibiting the synthesis or secretion of age-albumin in cells of the mononuclear phagocyte system” (Gachon University of Industry-Academic Cooperation …, priority 2010, dated 2017).

What was measured:
[1] = tested on: rotenone-mediated neuronal cell death; assay: Rotenone mouse model, number of neuronal cells in brain tissues (cresyl violet staining); format: in vivo; conditions: rotenone mice
[2] = tested on: TNF-α, IL-1β and AGE-albumin in human macrophages (U937); assay: Macrophage (U937) model of rheumatoid arthritis, immunoblotting and ELISA; format: cell-based; conditions: β2-microglobulin 0, 12.5, 25, 50 μg
Method: Macrophages (U937) from human lymphoma were cultured in RPMI 1640 (Thermo, 10% FBS (Gibco), 0.1% gentamicin (Gibco), a high concentration of glucose) at 37° C. in a 5% CO2 incubator. Then, the human macrophages (U937) were exposed to β2-microglobulin (Sigma, 50 μg/mL) for 24 hrs to prepare a cell model of arthritis.
Human macrophages (U937) were treated with β2-microglobulin (0 μg, 12.5 μg, 25 μg, 50 μg), after which cell lysates and cell culture media were analyzed for the expression levels of TNF-α and IL-1β and for the synthesis and secretion of AGE-albumin using immunoblotting and ELISA.

Molecule	efficiency, Cephalothin sodium compared with Cefaclor ([1]; FIG. 40)	number of neurons in the injected region versus the non-injected region ([1]; predominant recovery in the substantia nigra)	expression levels of TNF-α, IL-1β and AGE-albumin in both cell lysate and cell culture medium [2]	secreted level of AGE-albumin [2]
CC(=O)OCC1=C(C(=O)O)N2C(=O)[C@@H](NC(=O)Cc3cccs3)[C@H]2SC1 [C-21, Cephalothin sodium]	Higher efficiency	higher number of neurons	–	–
β2-microglobulin: β2-microglobulin (Sigma), abundantly found in cartilage of rheumatoid arthritis patients	–	–	Increased	increased in a concentration-dependent manner
